In PMC4559766 (Scientific Reports, 2015):

Experiments:
Du145 cells [1] = assay: Apoptosis of Du145 cells, Annexin V-FITC/PI double staining-flow cytometry; assay type: cell-based, human; details: 20 nM, 48 h
Protocol: (§1) Du145 cells in logarithmic growth phase were seeded into 6-well plates with number of 3 × 10^5 cells per well. […] P16, TNF α and PBS (vehicle of peptide) were used as the controls.

Du145 cells [2] = assay: Cell cycle of Du145 cells, PI single staining-flow cytometry; assay type: cell-based, human; details: 20 nM, 48 hours
Protocol: as §1

## TNF α: Recombinant human TNF α purchased from Sino Biological Inc.
Du145 cells [1]
  pro-apoptotic ability on Du145 cells: markedly weaker than RMP16 and P16
Du145 cells [2]
  G0/G1 phase arrest for Du145 cells: no apparent ability to induce G0/G1 phase arrest
